The test addresses APC/mDia1 complex (SNAP-647-APC-C with SNAP-549-mDia1-C) (UniProt P25054). As to the kind of experiment: single-molecule TIRF microscopy colocalisation.

On to “Oregon Green (OG)-actin (from UniProt P68135 1-377) (natural protein)”, for which the percent of APC/mDia1 complexes occupied by LatB-OG-actin is 54.8%.

For the origin of these results see publication PMC3613992.
